# Reference: patent US20100204146A1, “Treatment of Oestrogen Dependant Conditions in Pre-menopausal Women” (PregLem S.A., priority 2007, published 2010)
# Test system: female Cynomolgus monkeys (Macaca fascicularis)
# Assay: 39-week intragastric study in female Cynomolgus monkeys: impact on ovarian cycle and function, microscopic status at necropsy
smiles,measurement,setting,value
"C[C@]12CC[C@@H]3c4ccc(OS(N)(=O)=O)cc4CC[C@H]3[C@@H]1CC[C@@H]2O [E2MATE, Estradiol sulfamate]",compound-related prolongation of the menstrual cycle length (animals),"0.2 mg/kg daily, treatment period",6/8
same,frequency and incidence of blood stained vaginal discharge,"from 0.2 mg/kg/day onwards, approx. 39 weeks",decreased
